In assay [1] the target is Potassium/sodium hyperpolarization-activated cyclic nucleotide-gated channel 4 (Homo sapiens, UniProt Q9Y3Q4). Briefly: Inhibition of human HCN4 heterologously expressed in HEK-293 cells after 30 mins by VIPR assay. The following applies: hek293.
The target in assay [2] is Potassium/sodium hyperpolarization-activated cyclic nucleotide-gated channel 1 (Homo sapiens, UniProt O60741). Briefly: Inhibition of human HCN1 heterologously expressed in HEK-293 cells after 30 mins by VIPR assay. To be noted: hek293.

Protein sequences, listed by entry. Tags and fused reporters are not part of them.
UniProt Q9Y3Q4, whole entry: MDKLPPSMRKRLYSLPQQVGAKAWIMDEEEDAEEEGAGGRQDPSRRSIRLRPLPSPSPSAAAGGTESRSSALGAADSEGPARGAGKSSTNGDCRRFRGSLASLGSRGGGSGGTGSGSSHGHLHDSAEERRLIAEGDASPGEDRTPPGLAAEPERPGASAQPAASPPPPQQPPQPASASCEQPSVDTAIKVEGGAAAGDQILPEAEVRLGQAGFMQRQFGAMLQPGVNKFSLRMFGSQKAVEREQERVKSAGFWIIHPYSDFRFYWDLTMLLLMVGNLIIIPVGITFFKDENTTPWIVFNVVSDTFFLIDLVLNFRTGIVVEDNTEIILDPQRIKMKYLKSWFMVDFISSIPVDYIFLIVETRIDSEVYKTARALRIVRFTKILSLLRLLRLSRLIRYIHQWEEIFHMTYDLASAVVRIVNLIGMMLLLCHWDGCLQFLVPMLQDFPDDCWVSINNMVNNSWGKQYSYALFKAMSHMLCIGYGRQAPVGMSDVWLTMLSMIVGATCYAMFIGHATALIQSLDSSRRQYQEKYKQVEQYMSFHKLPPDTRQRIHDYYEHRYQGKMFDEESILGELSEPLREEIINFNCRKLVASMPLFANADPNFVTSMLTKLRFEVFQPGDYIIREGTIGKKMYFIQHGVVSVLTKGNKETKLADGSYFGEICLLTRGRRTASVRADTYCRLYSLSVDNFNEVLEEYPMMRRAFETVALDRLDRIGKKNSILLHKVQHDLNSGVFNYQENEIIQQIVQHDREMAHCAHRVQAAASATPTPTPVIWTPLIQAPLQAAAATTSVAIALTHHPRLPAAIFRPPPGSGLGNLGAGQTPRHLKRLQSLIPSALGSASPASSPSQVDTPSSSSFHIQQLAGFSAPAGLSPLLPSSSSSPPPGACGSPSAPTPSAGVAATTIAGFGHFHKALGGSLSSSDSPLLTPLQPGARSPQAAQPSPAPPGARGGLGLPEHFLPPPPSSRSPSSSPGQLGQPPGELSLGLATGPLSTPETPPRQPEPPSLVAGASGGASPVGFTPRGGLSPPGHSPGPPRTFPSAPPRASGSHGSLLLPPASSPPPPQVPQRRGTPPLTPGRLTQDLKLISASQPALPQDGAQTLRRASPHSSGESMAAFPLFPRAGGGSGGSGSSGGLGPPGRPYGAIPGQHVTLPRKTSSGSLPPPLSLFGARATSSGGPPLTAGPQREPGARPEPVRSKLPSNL
UniProt O60741, whole entry: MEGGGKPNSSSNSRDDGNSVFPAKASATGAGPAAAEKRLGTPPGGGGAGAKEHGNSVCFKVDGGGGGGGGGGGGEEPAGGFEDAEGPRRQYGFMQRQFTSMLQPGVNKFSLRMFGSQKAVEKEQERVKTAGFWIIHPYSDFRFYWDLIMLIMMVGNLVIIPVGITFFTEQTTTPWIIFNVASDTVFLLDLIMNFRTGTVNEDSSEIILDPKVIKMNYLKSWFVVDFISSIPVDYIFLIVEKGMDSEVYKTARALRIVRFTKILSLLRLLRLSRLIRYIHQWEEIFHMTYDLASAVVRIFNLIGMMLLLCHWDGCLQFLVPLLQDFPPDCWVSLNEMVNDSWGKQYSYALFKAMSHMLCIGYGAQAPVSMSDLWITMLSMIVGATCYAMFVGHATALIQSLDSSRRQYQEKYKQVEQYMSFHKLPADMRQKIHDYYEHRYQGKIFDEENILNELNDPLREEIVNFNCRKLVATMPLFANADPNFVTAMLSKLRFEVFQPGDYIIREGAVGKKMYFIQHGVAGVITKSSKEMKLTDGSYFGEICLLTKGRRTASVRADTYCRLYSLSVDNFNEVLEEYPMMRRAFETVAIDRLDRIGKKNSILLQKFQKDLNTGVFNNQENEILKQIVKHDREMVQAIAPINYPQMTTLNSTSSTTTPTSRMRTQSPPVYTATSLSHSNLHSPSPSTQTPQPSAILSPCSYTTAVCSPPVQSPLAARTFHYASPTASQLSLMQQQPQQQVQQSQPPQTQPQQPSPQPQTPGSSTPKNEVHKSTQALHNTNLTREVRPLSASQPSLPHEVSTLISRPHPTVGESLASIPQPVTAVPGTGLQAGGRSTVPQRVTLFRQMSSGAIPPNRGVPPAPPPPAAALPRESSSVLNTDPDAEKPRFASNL

Molecules are shown by their SMILES. Some compounds may have been tested in ways that are not shown here.

For `CCOc1ccccc1C(=O)NCC1(N2CCCCC2)CCCCC1`, the pIC50 – broadly, −log10 of the IC50, conventionally taken in molar units – in assay [1] was determined as 4.4; in assay [2] it was 4.8.

For the compound `COc1ccccc1C(=O)NCC1(N2CCOCC2)CCCCC1`, in assay [1], the pIC50 is 4.3.

The values are drawn from ChEMBL document CHEMBL1821572, “Discovery of a novel series of selective HCN1 blockers” (Bioorg Med Chem Lett, 2011).
